The source of these data is patent US20260384421A1, “NOVEL COMPOUNDS THAT CAN BE USED AS THERAPEUTIC AGENTS” (published 2026).

SMILES strings stand for the structures.

One assay concerns REC-1 cells. Put plainly: alamarBlue proliferation assay with REC-1 cells. The conditions noted are these: read-out: Activity on REC-1 (IC50), day 5. Here is the method: (§1) These hyperproliferative processes can be benign or malignant and include hyperplasia, neoplasia, cancer and pre-cancerous lesions, and metastases. […] To this end, according cells were seeded into 96-well plates (CORNING #3598) suitable for fluorescence assays at following initial cell numbers: 1000 cells per well for HPEK; 3000 cells per well for MDA-MB-231, 8000 cells per well for ZR-75-30, 1500 cells per well for HCC-1395, 1500 cells per well for HCC-1937, 3000 cells per well for T-47D, 1500 cells per well for JURKAT, 5000 cells per well for RPMI-8402, 9000 cells per well for LOUCY, 1500 cells per well for TANQUE, 9000 cells per well for REC-1, 1000 cells per well for HL-60, 1000 cells per well for NB-4, 9000 cells per well for TT, 2000 cells per well for HeLa, 2000 cells per well for 23132/87, 9000 cells per well for SW-948, 700 cells per well for HCT-116, 1500 cells per well for BHY, 700 cells per well for A-431, 1500 cells per well for HEP-G2, 500 cells per well for NCI-H460, 1000 cells per well for A-549, 1500 cells per well for PANC-1, 2500 cells per well for U-87 MG, 700 cells per well for A-375, 1500 cells per well for RVH-421, 2000 cells per well for SW-1353, 500 cells per well for C2C12, 500 cells per well for LL/2, and 3000 cells per well for CF21.T. In a volume of 90 μL per well of culture medium the cells were treated with compounds at indicated final concentrations by adding 10 μL per well of 10× compound working solutions from 1:100 pre-diluted 1000× compound DMSO stock-solutions in H2O (Water For Injection, WFI, Fisher Scientific, Gibco™ #A12873) or with the empty carrier DMSO (AppliChem, #A3672) at 0.1% v/v as control yielding a final volume of 100 μL per well. […] The readout was taken with a multi-well plate-reader (Tecan Spark®) in the fluorescence mode with applying a filter for excitation at 560 nm (band width 10 nm) and for emission at 590 nm (band width 10 nm). […]
A general note: Alamar Blue is a resazurin reagent that responds to reducing activity.

The subject of a further assay is TT cells. Description: alamarBlue proliferation assay with TT cells. The conditions noted are these: read-out: Activity on TT (IC50), day 5. Here is the method: as §1
A further assay has as its system MDA-MB-231 cells. Description: combination treatment activity assay with syrosingopine on MDA-MB-231 cells. The conditions noted are these: compound 10 nM + syrosingopine 10 μM; 2 days; D-glucose-containing RPMI 1640. Here is the method:
The synergistic or additive activity of a compound falling under general formula (I) was investigated in a combination treatment with the MCT1/MCT4 inhibitor syrosingopine (TargetMol, #TN2252) in a viability assay on MDA-MB-231 cells cultured in D-Glucose-containing RPMI 1640 medium (Fisher Scientific, Gibco™ #72400) supplemented with 10% fetal bovine serum (Fisher Scientific, Gibco™ #A31608) and on HCT-116 cells cultured as described above. The viability assay was performed according to the protocol as described above using alamarBlue® (Bio-Rad Serotec GmbH, BUF012B). To this end, according cells were seeded into 96-well plates (CORNING, #3598) suitable for fluorescence assays at a cell number of 7'000 cells per well for MDA-MB-231 and 7'000 cells per well for HCT-116, and incubated over night at 37 °C and 5% CO2. Then, in a volume of 90 μL medium per well the cells were treated with compounds at a final concentration of 10 nM for the compound of formula (I) and 10 μM for syrosingopine by adding 10 μL per well of a 10× compound working solution or the empty carrier DMSO as control. The 10× working solutions were prepared by diluting both compounds from their 2000×DMSO stock-solutions together 1:200 each in H2O (Water For Injection, WFI, Fisher Scientific, Gibco™ #A12873) for the combination treatment, or by diluting their 2000×DMSO stock-solutions individually with the empty carrier DMSO 1:200 in H2O for the corresponding single treatments. Addition of the compound working solutions into the wells yielded a final assay volume of 100 μL per well containing 0.1% v/v DMSO. After 2 days incubation at 37 °C and 5% CO2, the cells were subjected to the alamarBlue® Proliferation Assay as described above. Relative viability values were calculated from the fluorescence intensities as described above.
A decrease in relative viability upon single treatment was not observed for the tested compounds of formula (I) and less than 25% for syrosingopine. […]

The subject of another assay is JURKAT cells. Put plainly: alamarBlue proliferation assay with JURKAT cells. The conditions noted are these: read-out: Activity on JURKAT (IC50), day 5.

One may read the IC50 as the concentration that inhibits the measured activity by half.

Take `O=C(c1ccc(Oc2ccc(C3CCC4(CCCC4)CC3)cc2CO)cc1)N1CCN(Cc2ccccc2)CC1`: the half-maximal inhibitory concentration (IC50) with REC-1 cells was no more than 5 µM.
As to `O=C(c1ccc(Oc2ccc(C3CCC4(CC3)OCCO4)cc2CO)cc1)N1CCN(Cc2ccsc2)CC1`, in the assay with TT cells, the IC50 was no more than 5 µM.
Take `O=C(c1ccc(Oc2ccc(C3CCC4(CC3)OCCO4)cc2CO)cc1)N1CCN(Cc2ccc(Cl)cc2)CC1`: the IC50 in the assay with TT cells was no more than 5 µM; in the assay on JURKAT cells it was no more than 20 µM; in the assay on REC-1 cells, no more than 0.2 µM. The “Activity as treatment enhancer (additional viability decrease as compared to single treatment with syrosingopine)” value with MDA-MB-231 cells is recorded as “viability decrease >45%”.
For `O=C(c1ccc(Oc2ccc(C3CCC4(CC3)OCCO4)cc2CO)cc1)N1CCN(Cc2ccc3ccccc3c2)CC1`, in the assay with JURKAT cells, the IC50 was no more than 20 µM.
Take `O=C(c1ccc(Oc2ccc(C3CCC4(CC3)OCCO4)cc2CO)cc1)N1CCN(Cc2ccc(O)cc2)CC1`: the IC50 in the assay on JURKAT cells was no more than 5 µM.
In the case of `O=C(c1ccc(Oc2ccc(C3CCC4(CC3)OCCO4)cc2CO)cc1)N1CCN(Cc2cccs2)CC1`, the half-inhibitory concentration (IC50) in the assay on TT cells is no more than 5 µM.
As for `O=C(c1ccc(Oc2ccc(C3CCC4(CCCO4)CC3)cc2CO)cc1)N1CCN(Cc2ccccc2)CC1` (centres unmarked), in the assay on JURKAT cells, the IC50 was no more than 1 µM.
For the molecule `O=C(c1ccc(Oc2ccc(C3CCC4(CC3)OCCO4)cc2CO)cc1)N1CCN(Cc2ccc([N+](=O)[O-])cc2)CC1`, the concentration for half-maximal inhibition (IC50) in the assay on JURKAT cells is no more than 20 µM.
